These results are taken from US8846929B2, “Substituted-quinoxaline-type piperidine compounds and the uses thereof” (priority 2007, dated 2014).

Sequences of proteins named here, by UniProt entry; tags and fusion partners are left off. A change or cut given only in a name is not applied to a line headed by its entry.
UniProt P35372: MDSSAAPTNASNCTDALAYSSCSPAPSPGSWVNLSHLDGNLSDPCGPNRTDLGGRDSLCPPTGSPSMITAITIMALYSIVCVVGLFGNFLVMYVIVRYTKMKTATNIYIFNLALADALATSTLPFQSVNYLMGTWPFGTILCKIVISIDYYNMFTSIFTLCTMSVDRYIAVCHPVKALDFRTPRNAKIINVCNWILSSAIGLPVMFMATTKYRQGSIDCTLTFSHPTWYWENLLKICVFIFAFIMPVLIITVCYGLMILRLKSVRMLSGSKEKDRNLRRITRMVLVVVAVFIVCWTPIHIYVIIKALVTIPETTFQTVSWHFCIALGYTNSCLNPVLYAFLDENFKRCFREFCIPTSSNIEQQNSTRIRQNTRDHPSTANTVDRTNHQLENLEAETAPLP
UniProt P41143: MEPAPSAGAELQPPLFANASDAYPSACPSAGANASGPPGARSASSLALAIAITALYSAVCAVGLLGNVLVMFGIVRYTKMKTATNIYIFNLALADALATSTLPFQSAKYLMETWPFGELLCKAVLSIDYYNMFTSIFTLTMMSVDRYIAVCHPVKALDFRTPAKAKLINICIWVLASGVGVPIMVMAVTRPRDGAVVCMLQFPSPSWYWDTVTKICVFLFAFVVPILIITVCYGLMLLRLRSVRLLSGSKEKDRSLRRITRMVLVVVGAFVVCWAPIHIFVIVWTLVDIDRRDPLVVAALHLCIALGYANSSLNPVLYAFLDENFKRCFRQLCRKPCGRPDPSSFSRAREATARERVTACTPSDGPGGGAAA
UniProt P41145: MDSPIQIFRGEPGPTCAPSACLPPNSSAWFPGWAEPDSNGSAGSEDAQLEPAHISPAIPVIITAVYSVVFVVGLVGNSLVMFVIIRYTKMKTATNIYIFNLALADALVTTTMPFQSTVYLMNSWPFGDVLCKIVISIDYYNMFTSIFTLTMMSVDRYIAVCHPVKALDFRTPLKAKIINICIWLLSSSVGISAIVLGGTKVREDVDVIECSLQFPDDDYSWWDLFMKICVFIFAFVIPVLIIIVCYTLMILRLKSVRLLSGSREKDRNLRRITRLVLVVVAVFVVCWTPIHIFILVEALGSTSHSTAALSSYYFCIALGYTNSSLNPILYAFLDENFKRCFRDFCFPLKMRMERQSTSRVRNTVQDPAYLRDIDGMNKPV
UniProt P41146: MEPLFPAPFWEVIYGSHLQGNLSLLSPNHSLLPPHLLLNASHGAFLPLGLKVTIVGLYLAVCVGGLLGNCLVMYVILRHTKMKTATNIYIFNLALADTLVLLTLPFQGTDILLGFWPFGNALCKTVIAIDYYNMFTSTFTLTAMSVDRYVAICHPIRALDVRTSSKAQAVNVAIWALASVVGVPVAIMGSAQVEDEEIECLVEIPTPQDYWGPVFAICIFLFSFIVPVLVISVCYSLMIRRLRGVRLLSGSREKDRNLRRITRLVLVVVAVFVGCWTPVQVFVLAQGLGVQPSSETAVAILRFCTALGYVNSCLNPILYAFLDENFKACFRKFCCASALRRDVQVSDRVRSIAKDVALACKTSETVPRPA
UniProt Q12809: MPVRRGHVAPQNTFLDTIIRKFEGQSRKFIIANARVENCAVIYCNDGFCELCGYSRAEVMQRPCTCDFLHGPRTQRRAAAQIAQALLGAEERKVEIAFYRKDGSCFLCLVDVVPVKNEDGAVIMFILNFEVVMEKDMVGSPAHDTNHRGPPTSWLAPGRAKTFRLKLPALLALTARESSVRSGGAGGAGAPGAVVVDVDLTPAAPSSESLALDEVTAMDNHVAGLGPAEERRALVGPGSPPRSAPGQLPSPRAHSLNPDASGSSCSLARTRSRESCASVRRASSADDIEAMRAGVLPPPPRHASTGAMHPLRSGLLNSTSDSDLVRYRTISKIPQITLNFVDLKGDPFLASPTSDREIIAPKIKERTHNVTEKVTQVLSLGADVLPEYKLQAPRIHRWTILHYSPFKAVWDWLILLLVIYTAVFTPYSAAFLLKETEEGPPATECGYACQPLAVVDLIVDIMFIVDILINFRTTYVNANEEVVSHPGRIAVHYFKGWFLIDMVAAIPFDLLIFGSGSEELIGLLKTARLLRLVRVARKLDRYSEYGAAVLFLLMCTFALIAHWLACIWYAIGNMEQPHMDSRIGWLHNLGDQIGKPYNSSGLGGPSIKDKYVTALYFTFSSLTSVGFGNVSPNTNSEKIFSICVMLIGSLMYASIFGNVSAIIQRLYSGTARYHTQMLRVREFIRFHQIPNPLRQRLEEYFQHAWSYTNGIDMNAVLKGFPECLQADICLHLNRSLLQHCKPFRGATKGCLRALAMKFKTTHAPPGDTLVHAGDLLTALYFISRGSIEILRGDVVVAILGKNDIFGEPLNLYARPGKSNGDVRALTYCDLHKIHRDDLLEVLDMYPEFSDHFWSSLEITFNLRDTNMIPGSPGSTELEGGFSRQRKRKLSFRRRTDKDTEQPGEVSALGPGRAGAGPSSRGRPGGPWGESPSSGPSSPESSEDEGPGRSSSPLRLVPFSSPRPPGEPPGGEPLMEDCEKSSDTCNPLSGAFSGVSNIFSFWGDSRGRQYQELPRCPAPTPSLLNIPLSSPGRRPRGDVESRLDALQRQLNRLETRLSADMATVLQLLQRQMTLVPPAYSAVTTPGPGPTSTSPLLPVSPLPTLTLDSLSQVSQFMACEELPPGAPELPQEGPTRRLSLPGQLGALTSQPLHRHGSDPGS

Series [1] is described as follows: Abnormal behavioral side effects (sedation, hyperactivity, hypoactivity). Conditions: in vivo.
For series [2], the system named is FCA-induced inflammation of the rat hind paw. The series is described as follows: Freund's complete adjuvant (FCA) model of inflammatory pain. The class given is in vivo.
The target in series [3] is T1, μ-opioid receptor (Homo sapiens (Human), UniProt P35372). The series is described as follows: In vitro mu-opioid receptor [35S]GTPγS functional assay. The note with it: mean ± SEM; for EC50: read-out: GTPγS Opioid Receptor Mu EC50.
A further series concerns the target delta opioid receptor (Homo sapiens (Human), UniProt P41143). The series is described as follows: In vitro delta-opioid receptor binding assay ([3H]-Naltrindole displacement). The note with it: read-out: Ki [Average ± Std Deviation] Opioid Receptor Delta; recombinant receptor expressed in CHO-K1 cells.
Series [4] has as its target T1, μ-opioid receptor. The series is described as follows: In vitro mu-opioid receptor binding assay ([3H]-diprenorphine displacement). Conditions: read-out: Ki [Average ± Std Deviation] Opioid Receptor Mu.
In series [5] the target is T2, kappa opioid receptor (Homo sapiens (Human), UniProt P41145). The series is described as follows: In vitro kappa-opioid receptor binding assay ([3H]-U69,593 displacement). Conditions: read-out: Ki [Average ± Std Deviation] Opioid Receptor Kappa; membranes from recombinant HEK-293 cells.
Series [6] addresses T2, kappa opioid receptor. The series is described as follows: In vitro kappa-opioid receptor [35S]GTPγS functional assay. The class given is biochemical. Conditions: mean ± SEM; for EC50: read-out: GTPγS Opioid Receptor Kappa EC50.
Series [7] has as its target T3, human opioid receptor-like (ORL-1) (Homo sapiens (Human), UniProt P41146). The series is described as follows: In vitro ORL-1 receptor binding assay ([3H]-nociceptin displacement). Conditions: read-out: Ki [Average ± Std Deviation] ORL-1; membranes from recombinant HEK-293 cells.
For series [8], the target named is T3, human opioid receptor-like (ORL-1). The series is described as follows: In vitro ORL-1 receptor [35S]GTPγS functional assay. Format: biochemical. The note with it: mean ± SEM; for EC50: read-out: GTPγS ORL-1 EC50.
The target of a further series is HERG channels (Homo sapiens (Human), UniProt Q12809). The series is described as follows: In vitro hERG (human ether a-go-go gene) assay.
For series [9], the system named is guinea pig purkinje fibers. The series is described as follows: APD (action potential duration) in guinea pig purkinje fibers.

In the case of `O=C(O)c1nc2ccccc2n([C@H]2C[C@H]3CC[C@@H](C2)N3C2CCCCCCCCCC2)c1=O` [listing 1 of 2 here], the “abnormal behavioral side effects, such as sedation, hyperactivity and/or hypoactivity” value in series [1] is “reduced abnormal behavioral side effects”.
In the case of `O=C(O)c1nc2ccccc2n([C@H]2C[C@H]3CC[C@@H](C2)N3C2CCCCCCC2)c1=O`, the entries for the “ED50 value for reversal of thermal hyperalgesia” value (from here on “ED50 value for reversal”) in series [2] (1 hour after administration), in [2] (3 hours after administration) and in series [2] (5 hours after administration) were 8.5 mg/kg, 4.0 mg/kg and 7.8 mg/kg, respectively. In series [2] (at 3 hours after administration), the “maximum % reversal of thermal hyperalgesia” value is given as “about 80%”.
With `O=C(O)c1nc2ccccc2n([C@H]2C[C@H]3CC[C@@H](C2)N3C2CCCCCCCCCC2)c1=O` [listing 2 of 2 here], the “% reversal of thermal hyperalgesia” value came to 34% in series [2] (5 mg/kg dose, 1 hour after administration); 46% in [2] (5 mg/kg dose, 3 hours after administration); 79% in [2] (5 mg/kg dose, 5 hours after administration).
As for “4-((endo)-8-cyclooctyl-8-azabicyclo[3.2.1]octan-3-yl)-N-(6-methoxypyridin-3-yl)-3-oxo-3,4-dihydroquinoxaline-2-carboxamide”, the EC50 amounted to 79300 nM on μ-opioid receptor [3], 831 nM on kappa opioid receptor [6] and 41.3 nM in series [8]. Also, the Ki came out at 1710 nM at delta opioid receptor, 210 nM on μ-opioid receptor [4], 55.8 nM on kappa opioid receptor [5] and 3.1 nM in series [7]. Further, the “GTPγS Opioid Receptor Kappa Emax” value on kappa opioid receptor [6] was determined as 8.7 ± 0.3%. Also, in series [8], the “GTPγS ORL-1 Emax” value was determined as 94.0 ± 3.6%.
With “4-((endo)-9-((exo)-bicyclo[3.3.1]nonan-3-yl)-9-azabicyclo[3.3.1]nonan-3-yl)-3-oxo-3,4-dihydroquinoxaline-2-carboxylic acid”, the cardiovascular side effects entry (at HERG channels; in [9]) was “reduced cardiovascular side effects” throughout. In addition, the “% reversal of thermal hyperalgesia” value in series [2] (3 mg/kg dose, 1 hour after administration) was 86%; in [2] (3 mg/kg dose, 3 hours after administration) it was 51%; in series [2] (3 mg/kg dose, 5 hours after administration), 27%. The “ED50 value for reversal” value in [2] (1 hour after administration) is listed as 0.8 mg/kg; in series [2] (3 hours after administration) it was 1.5 mg/kg; in [2] (5 hours after administration), 3.0 mg/kg.
Turning to “4-((endo)-9-cyclononyl-9-azabicyclo[3.3.1]nonan-3-yl)-3-oxo-3,4-dihydroquinoxaline-2-carboxylic acid”, the “GTPγS Opioid Receptor Mu Emax” value on μ-opioid receptor [3] was determined as 17.3 ± 2.9%. Besides, the EC50 at μ-opioid receptor [3] is 3390 nM; at kappa opioid receptor [6] it was 1770 nM; in series [8], 11.1 nM. For the same molecule, the Ki on delta opioid receptor was 3160 nM; at μ-opioid receptor [4] it was 699 nM; on kappa opioid receptor [5], 375 nM; in [7], 1.4 nM. The “GTPγS ORL-1 Emax” value in series [8] is reported as 96.5 ± 1.9%.
Turning to “4-((endo)-9-cyclooctyl-9-azabicyclo[3.3.1]nonan-3-yl)-3-oxo-3,4-dihydroquinoxaline-2-carboxylic acid”, on μ-opioid receptor [3], the “GTPγS Opioid Receptor Mu Emax” value was 11.0 ± 0.6%. Moreover, the values for the EC50 (on μ-opioid receptor [3]; at kappa opioid receptor [6]; in [8]) were 3920 nM, 450 nM and 114 nM, respectively. In addition, the Ki at delta opioid receptor came to 10900 nM; at μ-opioid receptor [4], 679 nM; on kappa opioid receptor [5], 440 nM; in series [7], 17.7 nM. Moreover, the “ED50 value for reversal” value was found to be 2.7 mg/kg in series [2] (1 hour after administration), 3.8 mg/kg in [2] (3 hours after administration) and 2.3 mg/kg in series [2] (5 hours after administration). Further, the “GTPγS Opioid Receptor Kappa Emax” value at kappa opioid receptor [6] turned out to be 3.7 ± 0.3%. Moreover, the “GTPγS ORL-1 Emax” value in [8] is on record as 87.3 ± 5.0%.
For “(2S)-2-(4-((endo)-8-cyclooctyl-8-azabicyclo[3.2.1]octan-3-yl)-3-oxo-1,2,3,4-tetrahydroquinoxaline-2-carboxamido)-3-hydroxypropanoic acid”, the “GTPγS Opioid Receptor Mu Emax” value on μ-opioid receptor [3] is listed as 10.6 ± 1.2%. Further, the EC50 at μ-opioid receptor [3] turned out to be 3580 nM; on kappa opioid receptor [6] it was 4680 nM; in series [8], 594 nM. The Ki on delta opioid receptor stood at 26000 nM; on μ-opioid receptor [4] it was 422 nM; on kappa opioid receptor [5], 422 nM; in series [7], 43.7 nM. The “GTPγS Opioid Receptor Kappa Emax” value on kappa opioid receptor [6] amounted to 8.3 ± 0.9%. Also, the “GTPγS ORL-1 Emax” value in series [8] is on record as 105.0 ± 0.6%.
Turning to “(2S)-2-(4-((endo)-8-cyclooctyl-8-azabicyclo[3.2.1]octan-3-yl)-3-oxo-3,4-dihydroquinoxalin-2-ylamino)-3-hydroxypropanamide”, the “GTPγS Opioid Receptor Mu Emax” value on μ-opioid receptor [3] came to 14%. The EC50 worked out at 2150 nM on μ-opioid receptor [3], 3150 nM on kappa opioid receptor [6] and 93.1 nM in series [8]. Further, the Ki at delta opioid receptor came out at 29200 nM; at μ-opioid receptor [4] it was 196 nM; at kappa opioid receptor [5], 130 nM; in series [7], 8.6 nM. The “GTPγS ORL-1 Emax” value in series [8] was determined as 83.3 ± 8.0%.
As for “(2S)-2-(4-((endo)-8-cyclooctyl-8-azabicyclo[3.2.1]octan-3-yl)-3-oxo-3,4-dihydroquinoxaline-2-carboxamido)-3-hydroxypropanoic acid”, at μ-opioid receptor [3], the “GTPγS Opioid Receptor Mu Emax” value came out at 9.7 ± 0.6%. Moreover, the EC50 is 1750 nM on μ-opioid receptor [3], 3860 nM on kappa opioid receptor [6] and 183 nM in series [8]. For the same molecule, the Ki worked out at 26100 nM on delta opioid receptor, 462 nM on μ-opioid receptor [4], 180 nM at kappa opioid receptor [5] and 13.5 nM in series [7]. Besides, the “GTPγS Opioid Receptor Kappa Emax” value on kappa opioid receptor [6] came out at 8.3 ± 0.3%. Further, the “GTPγS ORL-1 Emax” value in series [8] turned out to be 107.7 ± 3.7%.
Consider “(5)-2-(4-((endo)-8-cyclooctyl-8-azabicyclo[3.2.1]octan-3-yl)-3-oxo-3,4-dihydroquinoxalin-2-ylamino)-3-phenylpropanoic acid”, for which, at μ-opioid receptor [3], the “GTPγS Opioid Receptor Mu Emax” value is given as 10.5%. The values for the EC50 (at μ-opioid receptor [3]; at kappa opioid receptor [6]; in series [8]) were 1750 nM, 9700 nM and 1210 nM, respectively. Besides, the Ki is 1870 nM on delta opioid receptor, 377 nM on μ-opioid receptor [4], 534 nM on kappa opioid receptor [5] and 78.8 nM in series [7]. In addition, on kappa opioid receptor [6], the “GTPγS Opioid Receptor Kappa Emax” value stood at 3.7%. Moreover, the “GTPγS ORL-1 Emax” value in series [8] stood at 69%.
“ethyl 4-((endo)-9-cyclooctyl-9-azabicyclo[3.3.1]nonan-3-yl)-3-oxo-3,4-dihydroquinoxaline-2-carboxylate”: the “GTPγS Opioid Receptor Mu Emax” value at μ-opioid receptor [3] is 7.7 ± 0.6%. In addition, the EC50 on μ-opioid receptor [3] came out at 9870 nM; at kappa opioid receptor [6] it was 6240 nM; in [8] it was 103 nM. Besides, the Ki at delta opioid receptor turned out to be 41200 nM; on μ-opioid receptor [4], 480 nM; at kappa opioid receptor [5], 46.3 nM; in series [7], 40.3 nM. In addition, in series [8], the “GTPγS ORL-1 Emax” value was 58.3 ± 1.9%.
